Where a chain is given by its changes, count along the chain named.
Columns and labels:
Assay in all cases: cell-based or functional assay
[1] = target: T1, Pol III α-subunit L1128S of the Pol III core (αεθ) (E. coli, UniProt P10443 1-1160, L1128S)
T1 sequence: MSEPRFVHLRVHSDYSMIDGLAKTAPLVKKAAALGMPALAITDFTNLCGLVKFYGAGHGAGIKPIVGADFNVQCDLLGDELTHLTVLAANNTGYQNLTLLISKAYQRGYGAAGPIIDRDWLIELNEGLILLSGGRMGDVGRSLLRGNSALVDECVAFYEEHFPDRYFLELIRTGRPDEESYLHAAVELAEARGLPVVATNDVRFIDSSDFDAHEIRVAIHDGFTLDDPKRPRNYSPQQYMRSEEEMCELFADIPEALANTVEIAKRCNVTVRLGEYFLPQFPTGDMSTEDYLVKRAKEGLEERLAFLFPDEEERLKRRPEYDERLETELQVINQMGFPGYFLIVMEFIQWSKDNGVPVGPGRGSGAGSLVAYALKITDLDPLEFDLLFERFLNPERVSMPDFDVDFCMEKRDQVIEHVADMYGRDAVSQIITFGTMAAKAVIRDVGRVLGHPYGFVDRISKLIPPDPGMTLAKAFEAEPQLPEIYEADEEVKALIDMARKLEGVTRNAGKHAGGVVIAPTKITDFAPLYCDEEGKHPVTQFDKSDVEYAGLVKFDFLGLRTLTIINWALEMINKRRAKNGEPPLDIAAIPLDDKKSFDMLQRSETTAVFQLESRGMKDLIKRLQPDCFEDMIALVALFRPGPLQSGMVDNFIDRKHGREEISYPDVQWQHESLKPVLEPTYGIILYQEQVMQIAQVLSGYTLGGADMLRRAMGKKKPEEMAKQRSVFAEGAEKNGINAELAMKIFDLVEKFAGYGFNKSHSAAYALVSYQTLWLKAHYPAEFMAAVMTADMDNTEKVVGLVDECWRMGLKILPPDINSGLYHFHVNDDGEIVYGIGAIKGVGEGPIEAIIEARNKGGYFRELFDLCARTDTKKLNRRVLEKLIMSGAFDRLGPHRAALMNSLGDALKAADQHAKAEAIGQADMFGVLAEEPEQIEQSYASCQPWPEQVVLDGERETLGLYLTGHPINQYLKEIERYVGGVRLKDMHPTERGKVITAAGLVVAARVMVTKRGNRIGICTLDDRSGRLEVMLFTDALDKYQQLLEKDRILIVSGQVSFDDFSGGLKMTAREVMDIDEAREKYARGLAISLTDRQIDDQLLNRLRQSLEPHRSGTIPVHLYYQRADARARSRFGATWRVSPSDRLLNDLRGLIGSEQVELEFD

[2] = target: T2, Pol III α-subunit Y1119A of the Pol III core (αεθ) (E. coli, UniProt P10443 1-1160, Y1119A)
T2 sequence: T1 sequence with Y1119A, S1128L

[3] = target: T3, Pol III α-subunit L1097/8S of the Pol III core (αεθ) (E. coli, UniProt P10443 1-1160, L1097S | L1098S)
T3 sequence: T1 sequence with L1097S, L1098S, S1128L

B1: clamp loader complex τ3δδ'ψχ (complex, E. coli)
chain 1: MSYQVLARKWRPQTFADVVGQEHVLTALANGLSLGRIHHAYLFSGTRGVGKTSIARLLAKGLNCETGITATPCGVCDNCREIEQGRFVDLIEIDAASRTKVEDTRDLLDNVQYAPARGRFKVYLIDEVHMLSRHSFNALLKTLEEPPEHVKFLLATTDPQKLPVTILSRCLQFHLKALDVEQIRHQLEHILNEEHIAHEPRALQLLARAAEGSLRDALSLTDQAIASGDGQVSTQAVSAMLGTLDDDQALSLVEAMVEANGERVMALINEAAARGIEWEALLVEMLGLLHRIAMVQLSPAALGNDMAAIELRMRELARTIPPTDIQLYYQTLLIGRKELPYAPDRRMGVEMTLLRALAFHPRMPLPEPEVPRQSFAPVAPTAVMTPTQVPPQPQSAPQQAPTVPLPETTSQVLAARQQLQRVQGATKAKKSEPAAATRARPVNNAALERLASVTDRVQARPVPSALEKAPAKKEAYRWKATTPVMQQKEVVATPKALKKALEHEKTPELAAKLAAEAIERDPWAAQVSQLSLPKLVEQVALNAWKEESDNAVCLHLRSSQRHLNNRGAQQKLAEALSMLKGSTVELTIVEDDNPAVRTPLEWRQAIYEEKLAQARESIIADNNIQTLRRFFDAELDEESIRPI
chain 2: MIRLYPEQLRAQLNEGLRAAYLLLGNDPLLLQESQDAVRQVAAAQGFEEHHTFSIDPNTDWNAIFSLCQAMSLFASRQTLLLLLPENGPNAAINEQLLTLTGLLHDDLLLIVRGNKLSKAQENAAWFTALANRSVQVTCQTPEQAQLPRWVAARAKQLNLELDDAANQVLCYCYEGNLLALAQALERLSLLWPDGKLTLPRVEQAVNDAAHFTPFHWVDALLMGKSKRALHILQQLRLEGSEPVILLRTLQRELLLLVNLKRQSAHTPLRALFDKHRVWQNRRGMMGEALNRLSQTQLRQAVQLLTRTELTLKQDYGQSVWAELEGLSLLLCHKPLADVFIDG
chain 3: MRWYPWLRPDFEKLVASYQAGRGHHALLIQALPGMGDDALIYALSRYLLCQQPQGHKSCGHCRGCQLMQAGTHPDYYTLAPEKGKNTLGVDAVREVTEKLNEHARLGGAKVVWVTDAALLTDAAANALLKTLEEPPAETWFFLATREPERLLATLRSRCRLHYLAPPPEQYAVTWLSREVTMSQDALLAALRLSAGSPGAALALFQGDNWQARETLCQALAYSVPSGDWYSLLAALNHEQAPARLHWLATLLMDALKRHHGAAQVTNVDVPGLVAELANHLSPSRLQAILGDVCHIREQLMSVTGINRELLITDLLLRIEHYLQPGVVLPVPHL
chain 4: MTSRRDWQLQQLGITQWSLRRPGALQGEIAIAIPAHVRLVMVANDLPALTDPLVSDVLRALTVSPDQVLQLTPEKIAMLPQGSHCNSWRLGTDEPLSLEGAQVASPALTDLRANPTARAALWQQICTYEHDFFPRND
chain 5: MKNATFYLLDNDTTVDGLSAVEQLVCEIAAERWRSGKRVLIACEDEKQAYRLDEALWARPAESFVPHNLAGEGPRGGAPVEIAWPQKRSSSRRDILISLRTSFADFATAFTEVVDFVPYEDSLKQLARERYKAYRVAGFNLNTATWK
[1]
  leading strand synthesis rate for products greater than 23 kb in the whole replisome TFII rolling circle assay, fold lower than WT: 4 fold
[2]
  leading strand synthesis rate for products greater than 23 kb in the whole replisome TFII rolling circle assay, fold lower than WT: 2 fold
[3]
  leading strand synthesis rate for products greater than 23 kb in the whole replisome TFII rolling circle assay, fold lower than WT: > 20 fold
